Experimental data taken from PMC10850085 (Nature Communications, 2024).

Assays:
[1] = molecular target: T1, full-length murine Thrombopoietin (Tpo) (mouse, UniProt P40226 22-356, heavily glycosylated); experiment: SPR; Tpo (wild-type or site II mutants) as analyte over immobilised monomeric or dimeric TpoR (CM5, EDC/NHS); HBS-EP; single-site binding model; highest 15 nM, 250 nM or 50 nM; conditions: both partners purified
T1 construct: Thrombopoietin, mouse, residues 22 to 356; Cloned in pcDNA3.0 behind the mIL3 secretion signal and an N-terminal FLAG tag; also called full-length Tpo; full-length cytokine; source: FreeStyle 293-F cells, transfected, secreted

[2] = molecular target: T1, full-length murine Thrombopoietin (Tpo); experiment: SPR; monomeric TpoR ectodomain as analyte over Tpo (full length, TpoN or F162E) directly coupled to a CM5 chip (EDC/NHS); HBS-EP; Biacore 8k; single cycle kinetics, 1:1 binding model; two-fold dilution series, highest 250 nM; conditions: both partners purified

Kd [1]: 1 nM
Kd [2]: 100 ± 20 nM
B1: murine TpoR ectodomain, monomeric (TpoR_(1-479)) (receptor, mouse, UniProt Q08351 26-479, looked up)
chain: QDVFLLALGTEPLNCFSQTFEDLTCFWDEEEAAPSGTYQLLYAYRGEKPRACPLYSQSVPTFGTRYVCQFPAQDEVRLFFPLHLWVKNVSLNQTLIQRVLFVDSVGLPAPPRVIKARGGSQPGELQIHWEAPAPEISDFLRHELRYGPTDSSNATAPSVIQLLSTETCCPTLWMPNPVPVLDQPPCVHPTASQPHGPAPFLTVKGGSCLVSGLQAGKSYWLQLRSQPDGVSLRGSWGPWSFPVTVDLPGDAVTIGLQCFTLDLKMVTCQWQQQDRTSSQGFFRHSRTRCCPTDRDPTWEKCEEEEPRPGSQPALVSRCHFKSRNDSVIHILVEVTTAQGAVHSYLGSPFWIHQAVLLPTPSLHWREVSSGRLELEWQHQSSWAAQETCYQLRYTGEGREDWKVLEPSLGARGGTLELRPRARYSLQLRARLNGPTYQGPWSAWSPPARVSTGSE
modifications: N-linked glycans at N117, N178, N349; tryptophan mannosylation (W465, W468)
notes: signal peptide in the construct; Thrombopoietin receptor (c-Mpl), mouse, residues 1-479, followed by a TEV cleavage site and the Fc domain of hIgG1; Eluted from Protein G resin by TEV cleavage; residues of the TEV site may remain at the C-terminus; also called murine TpoR (monomeric); source: Expi293F cells, transiently transfected, secreted; purified (Protein G Sepharose, TEV elution, Superdex …)
